The values below come from article PMC11657034.

The target of assay [1] is biotinylated actin filament (chicken G actin polymerised with biotinylated G actin) (chicken) (UniProt P68139). The assay can be described thus: optical trap (3-bead assay, stationary dual beam); single βM‐II molecule adsorbed on pedestal bead, actin dumbbell held in two traps; 80 µM ATP; load range ± 2 pN; KS buffer; ≈22 °C.
Assay [2] has the same target. Briefly: optical trap (3-bead assay, square wave scanning); single βM‐II molecule on pedestal bead, actin dumbbell moved ±180 nm; 1 µM ATP; load ± 15 pN; events pooled in 4 pN bins, double exponential fit; ≈22 °C.
The target is the same in assay [3]. The assay can be described thus: optical trap (3-bead assay, stationary dual beam); single SolM‐II molecule adsorbed on nitrocellulose-coated pedestal bead, actin dumbbell held in two traps; 500 µM ATP; load range ± 2 pN; KS buffer (25 mM KCl, 25 mM Hepes pH 7.4, 4 mM MgCl2, 1 mM DTT); ≈22 °C.
Assay [4] has the same target. The assay can be described thus: optical trap (3-bead assay, square wave scanning); single SolM‐II molecule on pedestal bead, actin dumbbell moved ±180 nm; 10 µM ATP; load ± 15 pN; events pooled in 4 pN bins, double exponential fit; ≈22 °C.
For assay [5] the target is unchanged. Briefly: optical trap (3-bead assay, square wave scanning); single SolM‐II molecule on pedestal bead, actin dumbbell moved ±180 nm; 500 µM ATP; load ± 15 pN; events pooled in 4 pN bins, double exponential fit; ≈22 °C.

Several values for one entry are separate records, joined by “and”; a condition that tells them apart may be missing. Identical values can stand only once.

In assay [1], “rabbit native β‐cardiac myosin II (ventricular) (from UniProt P04461 1-736; Q7M2V4 1-165) (complex)” displayed a detachment rate (1/τ) of one load bin of 33.5 s⁻¹, a detachment rate at zero load k0 (fit of the binned rates) of 43.8 s⁻¹ and a detachment rate at zero load k0 (fit of the scatter plot) of 41 s⁻¹. Moreover, in assay [2], the fast detachment rate kf at high load turned out to be 35 s⁻¹; the slow detachment rate ks was 5.7 s⁻¹ and 2.9 s⁻¹.

Take “rabbit native slow skeletal myosin II from Musculus soleus (from UniProt P04461 1-736; Q7M2V4 1-165) (complex)”: in assay [3], the detachment rate (1/τ) at 0.5–1 pN worked out at 17.6 s^−1, the detachment rate at zero load k0 (fit of the binned rates) turned out to be 22.2 s⁻¹ and the detachment rate at zero load k0 (fit of the scatter plot) came to 27 s⁻¹. Further, in assay [4], the fast detachment rate kf was 243 s⁻¹ and the fast detachment rate kf at high load was determined as 25 s⁻¹. The substance further showed a slow detachment rate ks at high load in assay [5] of 2 s⁻¹.
